# Experimental melting point values from OPERA 2.9

Source: data files of OPERA 2.9 (Mansouri et al.), github.com/kmansouri/OPERA.

The melting point is given in degrees Celsius. Cells with "n/a" have no entry in this list.

SMILES,name,MP (°C)
COc1ccc(S(=O)(=O)N2CCNCC2)cc1OC,"1-[(3,4-dimethoxyphenyl)sulfonyl]piperazine",146
C=C(C)C(=O)OCCN(C)S(=O)(=O)C(F)(F)C(F)(F)C(F)(F)C(F)(F)F,2-(N-Methylperfluorobutanesulfonamido)ethyl methacrylate,52
COc1c(F)cc(F)cc1C#N,"3,5-Difluoro-2-methoxybenzonitrile",34.5
O=C(O)c1ccc(CS)cc1,4-(Mercaptomethyl)benzoic acid,180
CCCCC(CC)CN1CN(CC(CC)CCCC)CC(C)(N)C1 (stereo not drawn),Hexetidine,70
CC(=O)OC1CCCCC1C (stereo not drawn),2-Methylcyclohexyl acetate,-31.6
CC(=O)Nc1cccc(N)c1C,"Acetamide, N-(3-amino-2-methylphenyl)-",143
NNC(=O)c1c[nH]c2ccccc12,"Indole-3-carboxylic acid, hydrazide",230
Nc1nc(CN2CCOCC2)cs1,4-Morpholin-4-ylmethyl-thiazol-2-ylamine,148
Cc1ccc(OCC(=O)N(Cc2cccs2)c2cc[nH]n2)cc1,n/a,117.6
O=C(Nc1ccccc1C(=O)O)c1ccccc1Br,2-[(2-bromobenzoyl)amino]benzoic acid,202
CC(Cl)=CCCl,"1,3-Dichloro-2-butene",-78
COc1ccnc(CSc2nc3ccc(OC(F)F)cc3[nH]2)c1OC,Pantoprazole sulfide,115
CCOC(=O)c1ccc(N2CCNCC2)nc1,Ethyl 6-(piperazin-1-yl)pyridine-3-carboxylate,50
O=C(Nc1ccc(Cl)cc1)OCC(F)(F)F,"2,2,2-trifluoroethyl 4-chlorophenylcarbamate",70
COc1cc(C=O)cc(Cl)c1OCC(N)=O,2-(2-chloro-4-formyl-6-methoxyphenoxy)acetamide,168
COC(=O)c1ccc(C(=O)O)cn1,6-(Methoxycarbonyl)nicotinic acid,211
NNS(=O)(=O)c1ccc(Br)cc1,"Benzenesulfonic acid, 4-bromo-, hydrazide",226
O=C(O)CCOc1ccc([N+](=O)[O-])cc1,3-(4-Nitrophenoxy)propanoic acid,117
CC(C)c1nc(=S)[nH][nH]1,"5-Isopropyl-4H-[1,2,4]triazole-3-thiol",157
CCOc1oc(-c2ccccc2)nc1C(=O)O,"5-ethoxy-2-phenyl-1,3-oxazole-4-carboxylic Acid",148
CC(C)(C)N(Sc1nc2ccccc2s1)Sc1nc2ccccc2s1,n/a,137.5
CCCCCCCCCCCCCCCCCC(=O)OC(C)C(=O)OC(C)C(=O)[O-].[Na+] (stereo not drawn),Sodium stearoyl lactylate,55.95
CC1C(C)(C)C2=C(c3ncncc3CC2)C1(C)C (stereo not drawn),n/a,70.85
Cn1cc(C#N)cn1,1-Methyl-1H-pyrazole-4-carbonitrile,60
O=C(O)CCC(=O)c1ccc2c(c1)CCC2,"4-(2,3-dihydro-1H-inden-5-yl)-4-oxobutanoic acid",124
C=C[C@]1(C)CC[C@@H](C(C)(C)O)C[C@H]1C(=C)C,n/a,9
Cc1nc(Cl)c2c3c(sc2n1)CCC3,n/a,92
O[C@@H](CN(Cc1ccccc1)C[C@H](O)[C@H]1CCc2cc(F)ccc2O1)[C@@H]1CCc2cc(F)ccc2O1 (relative stereo),n/a,121.3
O=c1[nH]c2ccc(S(=O)(=O)Cl)cc2[nH]c1=O,"2,3-dioxo-1,2,3,4-tetrahydroquinoxaline-6-sulfonyl chloride",305
Cc1cccc(N2CC(C(=O)O)CC2=O)c1C (stereo not drawn),"1-(2,3-dimethylphenyl)-5-oxopyrrolidine-3-carboxylic acid",212
O=C(O)CSc1ccccc1F,[(2-fluorophenyl)thio]acetic acid,81
CCCCCCCCCCCCCCC(CO)CCCCCCCCCCCC (stereo not drawn),"1-Hexadecanol, 2-dodecyl-",27.5
Cc1ccc(S(=O)(=O)N(C)C)cc1N,"Benzenesulfonamide, 3-amino-N,N,4-trimethyl-",173
O=C(O)CCN1C(=O)CSc2ccccc21,"3-(3-Oxo-2,3-dihydro-4H-1,4-benzothiazin-4-yl)propanoic acid",145
Cc1cccc(OC(C)C(=O)NN)c1C (stereo not drawn),"2-(2,3-dimethylphenoxy)propanohydrazide",142
CC(CN1c2ccccc2Sc2ccccc21)[N+](C)(C)C.COS(=O)(=O)[O-] (stereo not drawn),Thiazinamium methyl sulfate,208

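The OPERA project collected these measurements from public sources as training and test data for property models. The files give a single number for a compound and property, which may rest on several reports. Conditions of the individual experiments are not part of the data. The measured form (salt, isomer or mixture) is not always the one drawn. Unmarked limits or estimates from the upstream databases cannot be ruled out.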